Results on one molecule are retold here after patent US20070155806A1, “Novel luciferin derivatives” (The University of Tokyo, priority 2005, published 2007).

Amino acid sequences for entries named in this document (tags omitted).
UniProt P08659, whole entry: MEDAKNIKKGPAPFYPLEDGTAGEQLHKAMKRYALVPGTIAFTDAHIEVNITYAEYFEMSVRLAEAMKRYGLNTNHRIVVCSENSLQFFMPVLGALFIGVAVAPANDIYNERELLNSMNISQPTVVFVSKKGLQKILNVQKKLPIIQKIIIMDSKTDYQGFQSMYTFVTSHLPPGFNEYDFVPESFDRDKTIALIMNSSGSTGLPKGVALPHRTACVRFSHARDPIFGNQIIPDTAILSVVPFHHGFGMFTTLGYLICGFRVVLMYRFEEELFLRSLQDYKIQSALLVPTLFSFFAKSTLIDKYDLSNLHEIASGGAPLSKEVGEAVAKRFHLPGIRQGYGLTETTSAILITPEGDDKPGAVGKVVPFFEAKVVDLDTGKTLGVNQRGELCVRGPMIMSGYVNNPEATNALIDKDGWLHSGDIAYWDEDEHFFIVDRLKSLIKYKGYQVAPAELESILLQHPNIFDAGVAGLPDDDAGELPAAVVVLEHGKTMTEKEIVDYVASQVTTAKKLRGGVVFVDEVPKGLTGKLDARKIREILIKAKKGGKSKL

One assay concerns the target firefly luciferase (Photinus pyralis, UniProt P08659). The conditions noted are these: conventional luciferin luminescence; cited from earlier work.
In the next assay the target is luciferase (firefly) (Photinus pyralis, UniProt P08659). As to the kind of experiment: Luminescence characteristics with firefly luciferase (Example 3). It is filed as biochemical. The settings on record: 12 μmol/L substrate, 20 μg/mL luciferase. On the procedure: The measurement was performed by using Fluorescence Spectrophotometer F-4500 (Hitachi).

`O=C(O)[C@H]1CSC(c2nc3ccc(O)cc3s2)=N1` [luciferin]: at firefly luciferase, the emission wavelength is reported as 570 nm. In addition, the “λmax(nm)” value on luciferase (firefly) (luminescence peak, HEPES pH 7.7, ATP, Mg, CoA) was 575 nm. Further, the initial intensity on luciferase (firefly) (luminescence, HEPES pH 7.7) was found to be 7332.
